The text below walks through data of ChEMBL document CHEMBL4406913, “INCB050465 (Parsaclisib), a Novel Next-Generation Inhibitor of Phosphoinositide 3-Kinase Delta (PI3Kδ)” (ACS Med Chem Lett, 2019).

The structures appear in SMILES notation.

The assay concerns the target T1, Phosphatidylinositol 4,5-bisphosphate 3-kinase catalytic subunit delta isoform (Homo sapiens, UniProt O00329).
T1 sequence (O00329 whole entry): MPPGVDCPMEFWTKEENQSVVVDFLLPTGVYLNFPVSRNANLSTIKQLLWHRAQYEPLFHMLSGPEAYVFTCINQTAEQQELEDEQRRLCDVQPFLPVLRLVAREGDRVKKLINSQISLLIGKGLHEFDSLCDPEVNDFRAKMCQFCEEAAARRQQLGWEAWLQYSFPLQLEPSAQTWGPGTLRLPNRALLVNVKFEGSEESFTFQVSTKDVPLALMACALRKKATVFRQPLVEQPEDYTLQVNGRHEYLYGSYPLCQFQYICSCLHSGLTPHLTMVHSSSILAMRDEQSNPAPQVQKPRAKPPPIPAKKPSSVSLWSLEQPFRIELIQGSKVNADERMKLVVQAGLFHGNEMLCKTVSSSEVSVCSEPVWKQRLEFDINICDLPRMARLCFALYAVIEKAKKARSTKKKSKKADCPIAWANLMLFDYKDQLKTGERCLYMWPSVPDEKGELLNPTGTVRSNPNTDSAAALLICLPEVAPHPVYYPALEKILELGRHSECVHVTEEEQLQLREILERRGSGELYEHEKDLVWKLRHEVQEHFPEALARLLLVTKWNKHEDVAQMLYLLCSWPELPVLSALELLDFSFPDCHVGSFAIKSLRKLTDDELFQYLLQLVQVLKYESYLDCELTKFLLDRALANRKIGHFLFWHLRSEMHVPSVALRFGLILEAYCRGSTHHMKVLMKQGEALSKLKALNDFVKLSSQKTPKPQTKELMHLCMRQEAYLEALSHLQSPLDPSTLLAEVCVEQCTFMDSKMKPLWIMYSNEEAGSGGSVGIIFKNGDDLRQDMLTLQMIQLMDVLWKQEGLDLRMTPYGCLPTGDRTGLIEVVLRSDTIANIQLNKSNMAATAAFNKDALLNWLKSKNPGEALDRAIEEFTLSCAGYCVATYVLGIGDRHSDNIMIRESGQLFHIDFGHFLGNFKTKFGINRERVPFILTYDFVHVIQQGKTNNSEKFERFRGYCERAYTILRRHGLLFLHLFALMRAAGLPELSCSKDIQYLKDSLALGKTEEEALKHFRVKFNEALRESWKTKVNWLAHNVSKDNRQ

`Cc1csc2nc([C@H](C)Nc3ncnc4[nH]cnc34)c(-c3cccc(F)c3)c(=O)n12` [DEZAPELISIB]: half-maximal inhibition (IC50) required 3.4 nM.

As a reminder, the IC50 is the midpoint of a concentration-inhibition curve.
